Molecular target: BCRP (Homo sapiens, UniProt Q9UNQ0)

By UniProt entry, the sequences of proteins in these tests, tags left out. Where a name states a change or a piece, a line headed by the entry shows the natural chain unless it says otherwise.
UniProt Q9UNQ0: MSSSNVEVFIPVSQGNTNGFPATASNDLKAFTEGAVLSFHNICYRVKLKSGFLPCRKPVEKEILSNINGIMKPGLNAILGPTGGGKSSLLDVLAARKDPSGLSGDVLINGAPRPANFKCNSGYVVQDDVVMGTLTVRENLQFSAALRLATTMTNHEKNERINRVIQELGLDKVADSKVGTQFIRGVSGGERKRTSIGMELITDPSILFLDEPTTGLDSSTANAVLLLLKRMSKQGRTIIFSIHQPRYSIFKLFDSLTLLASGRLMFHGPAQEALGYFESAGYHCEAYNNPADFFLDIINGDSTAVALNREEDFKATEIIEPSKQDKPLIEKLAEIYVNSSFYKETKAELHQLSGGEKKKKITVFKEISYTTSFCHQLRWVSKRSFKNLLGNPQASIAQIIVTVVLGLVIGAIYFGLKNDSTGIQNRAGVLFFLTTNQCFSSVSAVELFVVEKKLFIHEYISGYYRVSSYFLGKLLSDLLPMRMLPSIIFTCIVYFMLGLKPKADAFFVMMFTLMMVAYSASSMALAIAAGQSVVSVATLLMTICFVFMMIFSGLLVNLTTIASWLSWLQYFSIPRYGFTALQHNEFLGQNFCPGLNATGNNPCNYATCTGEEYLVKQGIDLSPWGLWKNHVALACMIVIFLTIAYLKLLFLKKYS

LY335979
Percentage of inhibition (BCRP) (1 µM): -11.8% | Efflux ratio of E3S (Caco-2): 22.2 | Papp A-B of E3S (Caco-2): 3.96 ×10–^6 cm/s | Papp B-A of E3S (Caco-2): 87.9 ×10–^6 cm/s

Reference: PMC11211886 (Frontiers in Pharmacology, 2024)
